Laboratory results as given in publication PMC11876671, “Investigating blood–brain barrier penetration and neurotoxicity of natural products for central nervous system drug development” (Scientific Reports, 2025).

Assay: PAMPA-BBB permeability assay (stirring Double-Sink)
Conditions: Table S3: compounds exhibiting low PAMPA-BBB permeability

## CC(=O)C1=CCCC2CCC1N2 (stereo not shown)
  PAMPA-BBB Pe(10^-6 cm/sec): 9.5 10^-6 cm/sec
